Experimental data: ChEMBL document CHEMBL1122429, “In vitro and in vivo protection of acetylcholinesterase against organophosphate poisoning by pretreatment with a novel derivative of 1,3,2-dioxaphosphorinane 2-oxide” (1983)

Amino acid sequences for entries named in this document (tags omitted). Residues count along the entry.
UniProt O42275, 24-633 limits assumed: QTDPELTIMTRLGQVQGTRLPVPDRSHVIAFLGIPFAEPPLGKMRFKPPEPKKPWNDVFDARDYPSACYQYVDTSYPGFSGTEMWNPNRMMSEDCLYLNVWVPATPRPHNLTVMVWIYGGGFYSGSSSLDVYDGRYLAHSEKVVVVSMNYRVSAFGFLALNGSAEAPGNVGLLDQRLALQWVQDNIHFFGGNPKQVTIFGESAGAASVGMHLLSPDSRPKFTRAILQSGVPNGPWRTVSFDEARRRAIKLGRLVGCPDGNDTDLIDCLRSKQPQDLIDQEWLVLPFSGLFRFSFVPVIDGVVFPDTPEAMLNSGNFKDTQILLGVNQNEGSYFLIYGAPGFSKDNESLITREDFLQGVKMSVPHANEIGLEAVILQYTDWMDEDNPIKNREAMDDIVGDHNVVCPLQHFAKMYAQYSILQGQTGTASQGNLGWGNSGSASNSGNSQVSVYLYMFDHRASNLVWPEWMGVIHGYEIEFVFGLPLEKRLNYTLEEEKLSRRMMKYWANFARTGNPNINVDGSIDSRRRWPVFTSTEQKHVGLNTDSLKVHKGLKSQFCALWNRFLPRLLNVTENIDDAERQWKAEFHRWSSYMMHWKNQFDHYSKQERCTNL
UniProt P37136, 32-614 limits assumed: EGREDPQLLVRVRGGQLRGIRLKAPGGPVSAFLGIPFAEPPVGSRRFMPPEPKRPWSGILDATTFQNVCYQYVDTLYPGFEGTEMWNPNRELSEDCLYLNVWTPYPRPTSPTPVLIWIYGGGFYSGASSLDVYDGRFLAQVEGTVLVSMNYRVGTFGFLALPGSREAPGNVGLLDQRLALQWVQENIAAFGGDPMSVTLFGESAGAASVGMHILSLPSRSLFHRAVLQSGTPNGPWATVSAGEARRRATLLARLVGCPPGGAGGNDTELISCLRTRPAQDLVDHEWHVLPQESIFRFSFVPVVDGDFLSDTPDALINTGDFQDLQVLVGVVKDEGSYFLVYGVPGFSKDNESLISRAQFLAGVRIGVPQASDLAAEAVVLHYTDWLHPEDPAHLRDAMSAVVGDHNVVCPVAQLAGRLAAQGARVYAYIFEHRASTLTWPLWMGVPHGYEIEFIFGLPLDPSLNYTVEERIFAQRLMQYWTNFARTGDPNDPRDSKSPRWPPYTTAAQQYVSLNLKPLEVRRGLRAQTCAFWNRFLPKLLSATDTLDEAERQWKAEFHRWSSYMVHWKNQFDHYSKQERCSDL
UniProt P81908, whole entry, entry inferred from the test as described: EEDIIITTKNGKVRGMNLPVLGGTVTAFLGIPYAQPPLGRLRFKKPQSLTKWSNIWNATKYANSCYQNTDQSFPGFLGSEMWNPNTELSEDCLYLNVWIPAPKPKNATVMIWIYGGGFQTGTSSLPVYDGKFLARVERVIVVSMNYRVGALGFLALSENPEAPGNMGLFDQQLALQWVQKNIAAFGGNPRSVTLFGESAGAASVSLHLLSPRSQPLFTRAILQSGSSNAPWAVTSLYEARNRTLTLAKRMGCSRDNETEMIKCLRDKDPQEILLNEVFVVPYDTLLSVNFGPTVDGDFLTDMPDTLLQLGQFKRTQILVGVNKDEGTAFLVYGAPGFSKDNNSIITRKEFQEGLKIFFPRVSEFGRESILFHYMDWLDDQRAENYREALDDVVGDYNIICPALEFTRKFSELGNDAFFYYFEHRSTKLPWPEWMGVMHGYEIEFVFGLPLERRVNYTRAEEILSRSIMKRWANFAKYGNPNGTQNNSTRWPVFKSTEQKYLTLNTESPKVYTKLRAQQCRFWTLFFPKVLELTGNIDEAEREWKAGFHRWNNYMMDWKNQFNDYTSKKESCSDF
UniProt Q03311, 30-603 limits assumed, entry inferred from the test as described: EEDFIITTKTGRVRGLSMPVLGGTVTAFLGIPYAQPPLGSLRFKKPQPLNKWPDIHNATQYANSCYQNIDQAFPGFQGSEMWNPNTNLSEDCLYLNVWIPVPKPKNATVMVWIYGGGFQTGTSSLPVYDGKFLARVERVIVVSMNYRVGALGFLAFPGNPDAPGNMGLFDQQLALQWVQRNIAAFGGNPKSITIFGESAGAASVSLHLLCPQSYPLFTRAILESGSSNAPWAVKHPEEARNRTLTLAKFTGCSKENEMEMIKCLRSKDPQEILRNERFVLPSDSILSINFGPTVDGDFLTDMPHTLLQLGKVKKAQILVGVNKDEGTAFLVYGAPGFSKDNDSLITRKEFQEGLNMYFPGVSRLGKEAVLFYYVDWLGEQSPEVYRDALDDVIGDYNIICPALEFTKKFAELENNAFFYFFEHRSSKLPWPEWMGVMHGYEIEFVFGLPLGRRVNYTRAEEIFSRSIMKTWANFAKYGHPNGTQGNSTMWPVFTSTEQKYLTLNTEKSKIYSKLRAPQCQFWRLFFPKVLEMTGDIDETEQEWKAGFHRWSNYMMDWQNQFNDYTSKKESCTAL

Legend:
[1] = Protective ratio of compound (10 mg/kg) against soman poisoning, given subcutaneously to mice 30 min prior to treatment by TAB
[2] = target: Acetylcholinesterase (Electrophorus electricus, UniProt O42275); assay: Inhibitory constant against eel acetylcholinesterase at pH 7.0
[3] = target: Acetylcholinesterase (Rattus norvegicus, UniProt P37136); assay: Inhibitory constant against rat brain acetylcholinesterase at pH 7.0
[4] = target: Unchecked (UniProt O42275); assay: Ratio of pseudo first order rate constant to that of inhibitory constant of compound in inhibition of eel acetylcholinesterase
[5] = target: Unchecked (UniProt P37136); assay: Ratio of pseudo first order rate constant to that of inhibitory constant of compound in inhibition of rat brain acetylcholinesterase
[6] = target: Unchecked (UniProt P81908); assay: Ratio of pseudo first order rate constant to that of inhibitory constant of compound in inhibition of horse serum butyrylcholinesterase
[7] = target: Unchecked (UniProt Q03311); assay: Ratio of pseudo first order rate constant to that of inhibitory constant of compound in inhibition of mouse serum butyrylcholinesterase

With `C[N+](C)(C)c1cccc(O)c1.[I-]` as the compound, how does the Protective ratio [1] read?
Its Protective ratio is < 2.

What does the source list for `C[N+](C)(C)c1cccc(OP2(=O)OCCCO2)c1`?
Ki [2]: 13 µM; Ki [3]: 31 µM

For `CN(C)C(=O)Oc1ccc[n+](C)c1.[Br-]`, which Protective ratio [1] is on record?
The Protective ratio was 3.1.

For `C[N+](C)(C)c1cccc(OP2(=O)OCCCO2)c1.[I-]`, which Ki [4] is on record?
The Ki was 140 M⁻¹ s⁻¹.

What about the Ki [5] of the same compound?
Its Ki is 107 M⁻¹ s⁻¹.

What about the Ki [6] of the same compound?
The Ki was 300 M⁻¹ s⁻¹.

What about the Ki [7] of the same compound?
The Ki was 122 M⁻¹ s⁻¹.
